pKi: −log10 of the molar value.
Molecular target: Androgen receptor (Homo sapiens, UniProt P10275)
Experiment: Displacement of [3H]DHT from androgen receptor of human MDA-453 cells

Sequences of proteins named here, by UniProt entry; tags and fusion partners are left off. A change or cut given only in a name is not applied to a line headed by its entry.
UniProt P10275: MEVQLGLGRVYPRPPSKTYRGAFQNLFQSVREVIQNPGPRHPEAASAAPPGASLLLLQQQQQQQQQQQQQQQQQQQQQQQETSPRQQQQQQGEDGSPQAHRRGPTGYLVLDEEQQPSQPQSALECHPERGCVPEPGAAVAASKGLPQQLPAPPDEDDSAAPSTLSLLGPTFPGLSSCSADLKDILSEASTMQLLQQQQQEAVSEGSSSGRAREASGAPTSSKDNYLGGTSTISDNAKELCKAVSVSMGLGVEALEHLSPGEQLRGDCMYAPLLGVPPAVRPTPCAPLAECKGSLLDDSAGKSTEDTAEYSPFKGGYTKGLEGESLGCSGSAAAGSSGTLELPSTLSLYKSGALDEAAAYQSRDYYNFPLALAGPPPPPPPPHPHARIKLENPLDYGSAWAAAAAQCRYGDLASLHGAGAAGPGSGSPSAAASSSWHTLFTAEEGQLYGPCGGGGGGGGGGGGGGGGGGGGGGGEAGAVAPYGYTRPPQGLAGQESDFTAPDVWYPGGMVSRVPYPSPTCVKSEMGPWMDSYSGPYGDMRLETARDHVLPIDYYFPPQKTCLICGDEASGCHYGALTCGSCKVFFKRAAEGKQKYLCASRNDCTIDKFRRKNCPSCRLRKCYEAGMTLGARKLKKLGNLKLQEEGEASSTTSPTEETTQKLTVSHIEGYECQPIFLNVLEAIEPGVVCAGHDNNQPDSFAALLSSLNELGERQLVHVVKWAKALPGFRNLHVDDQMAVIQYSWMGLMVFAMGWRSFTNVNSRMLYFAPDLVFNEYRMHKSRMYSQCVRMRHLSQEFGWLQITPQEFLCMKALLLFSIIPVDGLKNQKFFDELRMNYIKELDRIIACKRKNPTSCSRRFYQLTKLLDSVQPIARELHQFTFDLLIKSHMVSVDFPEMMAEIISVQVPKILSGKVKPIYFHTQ

SMILES: CC(C)(C)OC(=O)N1C[C@@H]2C[C@H]1[C@H]1C(=O)N(c3ccc([N+](=O)[O-])c4ccccc34)C(=O)N21
- pKi: 5.99
